Assay: in vivo
Details: rat

CCOC(=O)C(C)(C)Oc1ccc(Cl)cc1 [clofibrate, ethyl ester of 2-(p-chlorophenoxy)-isobutyric acid, reference compound]
selectivity ratio: 5
